Source: PMC8782398

Biological target: human KOP receptor in CHO cells (human), P41145
Assay: radioligand binding

B1: Dynorphin-A (peptide)
chain: YGGFLRRIRPKLKWDNQ
modifications: not checked
- pKi: 10.2
